The target in this experiment is T1, IcSPP; Ilumatobacter coccineus sucrose 6^F-phosphate phosphorylase (Ilumatobacter coccineus, UniProt A0A6C7EEG6).
T1 construct: gene YM304_32550
The settings on record: phosphate ion in active site (Arg152, Glu264, Asp327, Tyr377, Gln378); reservoir contained 200 mM Na/K phosphate pH 7.5.

Protein sequences, listed by entry. Tags and fused reporters are not part of them. Lines headed by an entry give the natural chain unless they say otherwise; changes in a name come on top.
UniProt A0A6C7EEG6: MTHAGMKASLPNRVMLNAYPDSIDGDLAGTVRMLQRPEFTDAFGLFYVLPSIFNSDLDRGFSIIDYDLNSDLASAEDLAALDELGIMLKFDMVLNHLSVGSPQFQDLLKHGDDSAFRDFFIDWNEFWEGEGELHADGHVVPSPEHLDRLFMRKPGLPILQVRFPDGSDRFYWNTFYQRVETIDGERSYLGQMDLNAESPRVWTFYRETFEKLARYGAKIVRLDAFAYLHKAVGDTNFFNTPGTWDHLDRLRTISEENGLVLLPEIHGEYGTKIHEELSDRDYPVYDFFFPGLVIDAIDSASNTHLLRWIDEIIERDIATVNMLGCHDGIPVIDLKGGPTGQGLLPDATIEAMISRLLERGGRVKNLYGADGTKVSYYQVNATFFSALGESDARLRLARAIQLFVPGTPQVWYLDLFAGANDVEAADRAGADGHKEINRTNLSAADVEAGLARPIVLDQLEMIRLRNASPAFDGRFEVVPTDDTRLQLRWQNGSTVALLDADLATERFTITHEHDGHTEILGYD

Each structure is given as a SMILES string.

In the case of `O=P(O)(O)O` [phosphate], the “X-ray crystal structure, 2.05 Å” value is “In the structure of IcSPP, a phosphate ion is found interacting with Arg152, Glu264”.

Source of the values: PMC6720575 (International Journal of Molecular Sciences, 2019).
